Test results reported in ChEMBL document CHEMBL1123706, “Design of alternate substrate inhibitors of serine proteases. Synergistic use of alkyl substitution to impede enzyme-catalyzed deacylation” (J Med Chem, 1987).

Assays:
[1] = biological target: T1, Neutrophil elastase (Homo sapiens) (UniProt P08246)
T1 sequence (whole entry): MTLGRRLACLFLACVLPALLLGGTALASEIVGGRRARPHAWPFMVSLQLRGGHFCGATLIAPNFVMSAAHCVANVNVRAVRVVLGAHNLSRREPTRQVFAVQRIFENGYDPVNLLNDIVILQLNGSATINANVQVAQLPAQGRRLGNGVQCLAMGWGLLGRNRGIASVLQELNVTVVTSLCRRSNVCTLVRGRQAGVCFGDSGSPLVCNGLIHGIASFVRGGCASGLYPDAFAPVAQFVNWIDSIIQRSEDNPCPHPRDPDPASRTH

[2] = biological target: T1, Neutrophil elastase (Homo sapiens); assay: Rate of deacylation by human leukocyte elastase
Outline: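 Human leukocyte elastase. koff was mostly calculated as k1·Ki from progress curves, with coumarin substrate at about 0.04 Km in HEPES/1 M NaCl/Brij 35 buffer, pH 7.8, 25 °C. Otherwise, acyl enzyme was prepared and isolated on Sephadex G-25 at low pH. Deacylation was followed as the return of activity after dilution into assay buffer containing fluorogenic substrate.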

Row | k1 [1] [M⁻¹ s⁻¹] | k off [2] [s⁻¹] | Compound
1 | 450000 | 0.041 | CCCNc1nc2ccccc2c(=O)o1
2 | 66000 | 0.0055 | CCCCNc1nc2ccccc2c(=O)o1
3 | < 15 | – | CCc1cccc2nc(N)oc(=O)c12
4 | 70000 | 6.6e-05 | CCc1cccc2nc(NC(C)C)oc(=O)c12
5 | 11800 | 1.8e-05 | Cc1cccc2nc(NC(C)C)oc(=O)c12
6 | 810 | 0.051 | Nc1nc2ccccc2c(=O)o1
